# Ab-95 light chain CDR variants: yeast mating affinities

Source: Engelhart et al. 2022 (doi:10.1038/s41597-022-01779-4), MIT Lincoln Laboratory and A-Alpha Bio; data file from the FLAb repository.

Antigen: PDVDLGDISGINAS, a 14-residue peptide of the SARS-CoV-2 spike HR2 region.

Each scFv is VH, three GGGGS repeats, VL, as in the parent Ab-95, and differs from it in the CDRs of the light chain only.
VH: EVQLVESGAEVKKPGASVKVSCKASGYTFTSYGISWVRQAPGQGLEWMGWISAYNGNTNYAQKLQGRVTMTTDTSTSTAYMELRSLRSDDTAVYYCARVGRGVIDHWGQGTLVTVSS
VL: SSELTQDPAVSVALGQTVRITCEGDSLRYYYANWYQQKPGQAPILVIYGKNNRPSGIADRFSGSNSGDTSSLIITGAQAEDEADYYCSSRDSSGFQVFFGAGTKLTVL

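Phage display of a naive human antibody library on the peptide gave the parent. In library AAYL52, one, two or three CDR residues were substituted; doubles and triples were drawn at random. In AlphaSeq, yeast of one mating type display the scFv and yeast of the other type display the target. After mating in shaken culture at 30 °C for 16 h, diploids were selected and their barcode pairs sequenced. Read counts were normalised to the haploid input and turned into Kd by a linear fit to BCL2-family pairs of known affinity, for each replicate. There are three technical replicates.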

Substitutions are numbered in sequence along the VL above, starting at 1 (not Kabat).
Scale: log10 of Kd in nM, estimated from mating counts; low values are strong binders.
"nd" marks a missing value. The strain was present, yet no cells mated with the target were sequenced in that replicate, which points to weak or no binding.

| changes | log10 Kd (nM) by replicate | control signals |
|---|---|---|
| L27Y Y31Q P54M | nd / nd / nd | 3 of 9 (3.80) |
| Y30N S55Y S88W | 1.74 / 2.56 / 1.72 | 3 of 9 (4.20) |
| Y30D A32Y N33V | nd / nd / 4.37 | 0 of 9 |
| N51D D91H V97L | 3.00 / nd / 3.02 | 2 of 9 (3.92) |
| Y29C N33V S92I | nd / nd / nd | 1 of 9 (3.15) |
| N33G D91S F98G | 4.26 / 3.41 / 2.49 | 2 of 9 (4.40) |
| E23W S89A R90Y | 2.96 / 3.25 / nd | 3 of 9 (3.85) |
| R53V S89W Q96Y | 4.89 / nd / nd | 2 of 9 (3.77) |
| R28M R53K | 2.65 / 3.21 / 2.36 | 3 of 9 (4.17) |
| K50A S88F S89L | nd / nd / nd | 0 of 9 |
| N51C D91H G94R | nd / 4.60 / nd | 1 of 9 (3.98) |
| Y30N S55V F95M | 1.20 / 1.00 / 0.65 | 4 of 9 (4.86) |
| N52F R90D V97F | 3.84 / 3.73 / 2.98 | 5 of 9 (4.18) |
| D25V N33F N52G | 2.85 / nd / nd | 1 of 9 (3.31) |
| K50H S89Y V97N | nd / nd / nd | 0 of 9 |
| S89W F98P | 1.49 / 1.92 / 2.39 | 2 of 9 (3.78) |
| Y31E R90Q S92P | 2.43 / 2.07 / 1.29 | 4 of 9 (3.57) |
| R28S K50M S89Q | 3.39 / 3.71 / 4.91 | 4 of 9 (4.49) |
| E23I Y29A D91H | 2.55 / 2.59 / 2.26 | 5 of 9 (3.97) |
| L27V S88Q R90Y | 4.76 / nd / nd | 0 of 9 |
| E23S A32Q S92R | 2.54 / 2.12 / 2.26 | 2 of 9 (4.23) |
| Y30K Y31P S93P | 2.54 / 2.29 / 1.96 | 5 of 9 (4.56) |
| E23R S26L G94Y | 3.84 / 3.27 / nd | 4 of 9 (3.98) |
| L27W Y29A S89P | 4.53 / nd / nd | 2 of 9 (4.45) |
| S26L Y31Q P54L | 3.11 / nd / 2.94 | 5 of 9 (3.49) |
| A32W D91S S93R | 5.20 / 4.35 / nd | 4 of 9 (3.83) |
| Y31D F95K | 1.82 / 1.50 / 1.28 | 3 of 9 (4.01) |
| Y29R R53W V97G | nd / 4.55 / nd | 1 of 9 (3.97) |
| R28F F98Y | 3.22 / 2.81 / 2.65 | 6 of 9 (3.94) |
| Y29Q N33C S93A | 3.83 / nd / nd | 2 of 9 (2.74) |
| S55R G94M F95K | 2.97 / 3.29 / nd | 5 of 9 (3.80) |
| G49V N52L | nd / nd / nd | 2 of 9 (4.45) |
| R28D Y31L Q96E | 3.12 / 3.11 / 2.80 | 2 of 9 (3.91) |
| R28A R53F R90I | nd / nd / nd | 1 of 9 (4.08) |
| N33W R53N F98Q | 3.38 / nd / nd | 3 of 9 (3.46) |
| K50L S55P S92F | 2.24 / 2.21 / 1.86 | 5 of 9 (4.17) |
| S26A P54S V97I | 3.52 / 4.11 / 3.11 | 3 of 9 (4.22) |
| R53N | 2.66 / 2.20 / 1.46 | 4 of 9 (3.67) |
| D25R Y31V G94N | nd / nd / 4.30 | 3 of 9 (3.96) |
| E23T D91K S93F | 2.77 / 2.41 / 2.46 | 0 of 9 |
| S26T A32T G94C | nd / 4.13 / nd | 5 of 9 (4.12) |
| D25Y K50P V97P | 2.95 / 2.95 / 2.86 | 4 of 9 (3.71) |
| G24S N51V N52V | 4.00 / 4.46 / nd | 2 of 9 (3.62) |
| N52A S89H S92F | 2.19 / 2.80 / 2.47 | 4 of 9 (3.59) |
| Y31K S89R D91G | 3.36 / nd / nd | 1 of 9 (3.39) |
| Y31S G49F V97R | nd / 5.28 / nd | 4 of 9 (3.55) |
| S26C N33K S88K | 4.28 / nd / nd | 3 of 9 (3.10) |
| D25T P54Q V97E | nd / 4.15 / nd | 2 of 9 (3.57) |
| D25P R53W S89W | nd / nd / nd | 4 of 9 (3.81) |

The opening 4 entries, copied out:

changes,log10 Kd (nM) by replicate,control signals
L27Y Y31Q P54M,nd / nd / nd,3 of 9 (3.80)
Y30N S55Y S88W,1.74 / 2.56 / 1.72,3 of 9 (4.20)
Y30D A32Y N33V,nd / nd / 4.37,0 of 9
N51D D91H V97L,3.00 / nd / 3.02,2 of 9 (3.92)

Nonspecific signal, from three strains lacking the peptide, appeared in 28% of pairings of library AAYL52, centred on 3.91 (5% of these signals below 2.90); values are not corrected for it. Also given: how often the same scFv was detected with the empty control strains, with their mean in brackets.